# Tested on: hD2R
# Assay: Pairwise bias factor calculation
# Format: cell-based, human
# Settings: logarithmic scale; relative to quinpirole; 30 min data
smiles,measurement,value
"CCCN1CCC[C@@H]2Cc3n[nH]cc3C[C@H]21 [quinpirole, reference compound]",Bias factor GoA−βarrestin,0.00
same,Bias factor cAMP−βarrestin,0.00

# Source: PMC6371206 (ACS Pharmacology & Translational Science, 2019)
